For this assay, the target named is Histamine H1 receptor (Homo sapiens, UniProt P35367). Kind of assay: biochemical. In kind it is cell-based, HEK-293T.

By UniProt entry, the sequences of proteins in these tests, tags left out.
UniProt P35367, whole entry: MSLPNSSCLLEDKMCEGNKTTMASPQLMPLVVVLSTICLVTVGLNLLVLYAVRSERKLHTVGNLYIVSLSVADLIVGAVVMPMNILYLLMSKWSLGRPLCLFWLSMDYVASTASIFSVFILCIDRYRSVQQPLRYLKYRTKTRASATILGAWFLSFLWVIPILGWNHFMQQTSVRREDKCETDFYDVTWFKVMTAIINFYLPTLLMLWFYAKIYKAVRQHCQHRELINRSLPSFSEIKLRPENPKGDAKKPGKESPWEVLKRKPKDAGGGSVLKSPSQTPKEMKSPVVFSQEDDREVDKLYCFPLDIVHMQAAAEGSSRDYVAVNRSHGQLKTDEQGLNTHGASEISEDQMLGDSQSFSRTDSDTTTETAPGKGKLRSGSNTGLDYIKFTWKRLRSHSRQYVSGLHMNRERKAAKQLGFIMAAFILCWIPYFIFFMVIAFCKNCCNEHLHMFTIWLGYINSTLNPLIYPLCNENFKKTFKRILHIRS

From ChEMBL document CHEMBL3865843, “Identification of Ligand Binding Hot Spots of the Histamine H1 Receptor following Structure-Based Fragment Optimization” (J Med Chem, 2016) come the findings set out here.

Take `CN1CCC(Oc2ccccc2Cc2ccccc2)CC1.O=C(O)/C=C/C(=O)O`: affinity was put at a Ki of 2 nM.
